# scFv variants of Ab-14 (heavy chain) against a SARS-CoV-2 spike peptide

The measurements come from Engelhart et al. 2022 (doi:10.1038/s41597-022-01779-4) through the FLAb antibody collection.

Target peptide (SARS-CoV-2 spike, HR2 region): PDVDLGDISGINAS

Parent scFv Ab-14: VH joined to VL by three GGGGS repeats. Changes lie in the heavy chain CDRs alone.
VH: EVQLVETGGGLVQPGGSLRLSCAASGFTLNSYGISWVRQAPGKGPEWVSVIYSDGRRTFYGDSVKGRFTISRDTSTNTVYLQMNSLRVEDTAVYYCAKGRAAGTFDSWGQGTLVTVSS
VL: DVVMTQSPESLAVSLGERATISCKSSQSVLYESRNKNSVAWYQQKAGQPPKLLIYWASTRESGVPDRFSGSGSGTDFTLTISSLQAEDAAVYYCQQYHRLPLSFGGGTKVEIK

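Phage display of a naive human antibody library on the peptide gave the parent. In library AAYL49, one, two or three CDR residues were substituted; doubles and triples were drawn at random. Affinity was read by AlphaSeq, a pooled yeast mating assay with surface-displayed partners. Pairs that bind mate more often; barcode pairs of the diploids are counted by sequencing. The ratio of observed to expected reads was calibrated, replicate by replicate, on BCL2-family standards whose Kd was known from biolayer interferometry. The assay was run in three technical replicates.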

Changes read parent residue, position, new residue, counted from the first residue of the VH shown. Numbers give log10(Kd / nM), so 0 is 1 nM and 3 is 1 µM. Smaller is tighter. Where no diploid with the target was found in that replicate, the entry reads "ND": below detection, most likely a poor binder, though not proof of it. As a blank, each scFv also met three strains without target: over library AAYL49, 15% of these pairings were detected, typically at 4.06 and seldom below 2.83. The control count says in how many pairings with the empty strains this scFv gave a signal, with their mean in brackets.

| changes | log10 Kd (nM) by replicate | control signals |
|---|---|---|
| S53N D54E | ND ND ND | 1 of 9 (2.87) |
| S31Y I34S S63E | ND ND ND | 1 of 9 (3.63) |
| G33I I34L S107V | 4.68 ND ND | 3 of 9 (4.09) |
| Y52E V64E R100S | ND 4.49 ND | 0 of 9 |
| G26D L29Q R100S | ND ND ND | 0 of 9 |
| L29T R57P | 3.83 3.84 ND | 2 of 9 (4.23) |
| Y32L G99S F105E | ND 4.16 4.69 | 4 of 9 (4.12) |
| Y32C T58F | ND ND ND | 0 of 9 |
| F59P | 6.10 5.29 ND | 5 of 9 (4.19) |
| G33L G61V G99R | ND ND ND | 1 of 9 (3.99) |
| Y52R G55P S63Y | 3.57 ND 4.37 | 7 of 9 (4.27) |
| S35F R56N F105E | ND ND ND | 1 of 9 (4.41) |
| S35I Y52E S63F | ND ND ND | 2 of 9 (3.78) |
| R57S D106A S107A | ND ND ND | 1 of 9 (4.13) |
| T28R R100P A101D | 2.96 ND ND | 0 of 9 |
| S31M D54V A101V | ND ND ND | 0 of 9 |
| T28G Y32N G61T | 2.97 2.04 3.35 | 1 of 9 (4.71) |
| V50P D54Y S63N | 5.86 ND 4.59 | 3 of 9 (4.33) |
| G26S V64Y S107E | 3.93 ND 3.75 | 0 of 9 |
| I34N G99C S107F | ND ND ND | 0 of 9 |
| Y32M I51P R57M | ND 4.92 5.48 | 2 of 9 (3.78) |
| T28M N30C G61H | 2.04 1.71 2.28 | 0 of 9 |
| T28Q G33F I34D | ND ND ND | 2 of 9 (4.42) |
| R100Y T104F | ND ND ND | 4 of 9 (3.98) |
| I51P | 3.54 3.47 4.06 | 6 of 9 (4.19) |
| V64L K65I A102H | ND 3.34 ND | 0 of 9 |
| R57L K65D A102I | ND ND ND | 1 of 9 (3.49) |
| L29W S35F V50T | ND ND ND | 1 of 9 (3.19) |
| G55W A101H T104W | ND ND ND | 0 of 9 |
| L29S G99S D106M | ND ND ND | 0 of 9 |
| V50P S63Q | ND ND ND | 0 of 9 |
| I34N V50F I51V | 4.82 ND 5.58 | 4 of 9 (4.45) |